Experiment [1] deals with epidermoid carcinoma cell A431. The experiment can be described thus: In vitro growth inhibition, chemiluminescence (ATPLite). It counts as cell-based, human. As to conditions: 96 hr, weaker reaction.
Experiment [2] deals with GEO human colon carcinoma xenograft. In words: In vivo anti-tumor activity, tumor xenograft. Also noted: species or system BALB/c nude mice.
Experiment [3] relates to breast cancer cell MDA-MB-468. The experiment can be described thus: In vitro growth inhibition, CCK-8. The following applies: 48 hours, most sensitive of the four cell lines. It counts as cell-based, human.
The next experiment has as its system colon cancer cell LoVo. In words: In vitro growth inhibition, CCK-8. In kind it is cell-based, human. As to conditions: 48 hours.
The test system of experiment [4] is hypopharyngeal carcinoma cell FaDu. In words: In vitro growth inhibition, chemiluminescence (ATPLite). In kind it is cell-based, human. As to conditions: 96 hr, weaker reaction. Background: In ATP-based viability assays light output follows the ATP content of the culture.

Turning to cetuximab [Erbitux®], the inhibition of proliferation result (in experiment [1]; in experiment [3]; in the experiment with colon cancer cell LoVo; in experiment [4]) was “capable of inhibiting the proliferation” throughout. For the same substance, the “tumor suppression, repeat of the second experiment” value in experiment [2] (all doses (LR004 25, 50, 100 mg/kg; Erbitux 100 mg/kg), twice weekly for four weeks) is “complete tumor suppression”. In addition, the tumor volume entry in experiment [2] (i.v. twice weekly, LR004 100-200 mg/kg for three weeks or 25, 50, 100 mg/kg for four weeks, Erbitux 100 mg/kg) is “reduced the tumor volume significantly”.
